# Results as given in US12246026B2, “Ganaxolone for use in treatment of status epilepticus” (Marinus Pharmaceuticals, Inc., priority 2019, dated 2025).
# System: benzodiazepine-resistant SE
# Assay: Benzodiazepine-resistant SE in experimental animals
# Details: block of convulsions, reduction of EEG seizure activity, increased survival
smiles,measurement,value
"CC(=O)[C@H]1CC[C@H]2[C@@H]3CC[C@H]4C[C@](C)(O)CC[C@]4(C)[C@H]3CC[C@]12C [Ganaxolone, 3α-hydroxy-3β-methyl-5α-pregnan-20-one]",effect on benzodiazepine-resistant SE,immediate and prolonged cessation of benzodiazepine-resistant SE
